Entries after “also recorded” stand apart in the source; their conditions may differ.

Series [1] is described as follows: Investigation of plasma stability (Tam-labeled peptides, RP-HPLC). Format: in vitro ADME. The following applies: human blood plasma, 37 °C, up to 24 h.
In the next series the target is T1, hCMKLR1 (Homo sapiens, UniProt Q99788).
T1 sequence (Q99788 1-373): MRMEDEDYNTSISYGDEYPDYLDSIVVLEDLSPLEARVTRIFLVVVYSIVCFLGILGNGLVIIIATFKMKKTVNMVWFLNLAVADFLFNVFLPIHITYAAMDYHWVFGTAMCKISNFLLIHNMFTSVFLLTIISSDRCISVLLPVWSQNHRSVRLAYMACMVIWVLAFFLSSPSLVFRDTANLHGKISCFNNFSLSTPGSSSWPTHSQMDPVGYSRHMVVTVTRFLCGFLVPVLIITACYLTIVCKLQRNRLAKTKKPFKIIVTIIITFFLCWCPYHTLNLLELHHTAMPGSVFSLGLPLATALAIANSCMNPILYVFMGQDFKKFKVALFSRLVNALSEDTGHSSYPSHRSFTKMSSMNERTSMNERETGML
Briefly: Calcium flux assay in COS-7 cells transfected with hCMKLR1_eYFP_GαΔ6qi4myr. Conditions: Ca^2+ flux; for EC50: normalized to chemerin-9 curve. In general terms: A change in cytosolic calcium serves as a functional read-out for many receptors and channels.

The subject of series [2] is HEK293 cells stably transfected with CMKLR1-eYFP. As to the kind of experiment: Resazurin-based cell viability assay, HEK293-CMKLR1. The following applies: HEK293-CMKLR1, 72 h; read-out: IC50 (toxicity). The protocol:
HEK293 cells stably transfected with CMKLR1-eYFP, empty HEK293 cells (15,000 cells in 100 µL suspension/well), or HMEC-1 cells (5000 cells in 100 µL suspension/well) in their respective cell culture media were seeded in 96 well plates (coated with poly D-lysine for HEK cells) and incubated at standard conditions overnight. Afterward, cells were incubated with peptides or MTX dissolved in cell culture media, and a medium without peptides was used as a control. […] Ethanol or media was removed and a 50 µL resazurin-based in vitro toxicology assay kit (Sigma-Aldrich, St. Lous, MO, USA) in cell culture media (1:10) was added to each well. After 1 h incubation time, the conversion of the resazurin was detected by measuring the fluorescence intensity at λem = 590 nm. All experiments were performed in duplicates and each experiment was repeated at least three times. Nonlinear regression was calculated using GraphPad Prism 5, curves were normalized to untreated and ethanol-treated cells.
(Alamar Blue is a resazurin reagent that responds to reducing activity.)

In a further series the test system is HMEC-1 cells. As to the kind of experiment: Resazurin-based cell viability assay, HMEC-1. The following applies: HMEC-1 cells endogenously expressing CMKLR1, 72 h; read-out: IC50 (toxicity). The method, then: (§1) HEK293 cells stably transfected with CMKLR1-eYFP, empty HEK293 cells (15,000 cells in 100 µL suspension/well), or HMEC-1 cells (5000 cells in 100 µL suspension/well) in their respective cell culture media were seeded in 96 well plates (coated with poly D-lysine for HEK cells) and incubated at standard conditions overnight. Afterward, cells were incubated with peptides or MTX dissolved in cell culture media, and a medium without peptides was used as a control. After 72 h, cells of the negative control were treated with ethanol for 3 min. Ethanol or media was removed and a 50 µL resazurin-based in vitro toxicology assay kit (Sigma-Aldrich, St. Lous, MO, USA) in cell culture media (1:10) was added to each well. After 1 h incubation time, the conversion of the resazurin was detected by measuring the fluorescence intensity at λem = 590 nm. All experiments were performed in duplicates and each experiment was repeated at least three times. Nonlinear regression was calculated using GraphPad Prism 5, curves were normalized to untreated and ethanol-treated cells.

Another series in a line: human blood plasma. Conditions: 37 °C, up to 24 h.
For series [3], the system named is untransfected HEK293 cells. Briefly: Resazurin-based cell viability assay, untransfected HEK293. The following applies: HEK293 cells devoid of CMKLR1, 72 h; read-out: IC50 (toxicity). The method, then: as §1

Turning to `CN(C)c1ccc2c(c1)Oc1cc(N(C)C)ccc1C21OC(=O)c2ccc(C(=O)NCCCC[C@@H]3NC(=O)[C@H](Cc4ccccc4)NC(=O)[C@H](CCC(N)=O)NC(=O)[C@H](NC(=O)[C@@H]4CCCN4C(=O)[C@H](Cc4ccccc4)NC(=O)[C@@H](N)Cc4ccc(O)cc4)CSSC[C@@H](C(=O)O)NC(=O)[C@H](Cc4ccccc4)NC3=O)cc21` [Compound 7T, YFP(cQFK(Tam)FC)], the “stability in blood plasma (in words)” value in series [1] is “completely degraded within 60 min”.

Take `C[C@@H]1NC(=O)[C@H](Cc2ccccc2)NC(=O)[C@H](CCC(N)=O)NC(=O)[C@H](NC(=O)[C@@H]2CCCN2C(=O)[C@H](Cc2ccccc2)NC(=O)[C@H](Cc2ccc(O)cc2)NC(=O)c2ccc3c(c2)C2(OC3=O)c3ccc(N(C)C)cc3Oc3cc(N(C)C)ccc32)CSCSC[C@@H](C(=O)O)NC(=O)[C@H](Cc2ccccc2)NC1=O` [Compound 5T, Tam-YFP(c(CH2)QFAFC)]: the “stability in blood plasma (in words)” value in series [1] is “the same stability for 24 h”.

Consider `CN(C)c1ccc2c(c1)Oc1cc(N(C)C)ccc1C21OC(=O)c2ccc(C(=O)N[C@@H](Cc3ccc(O)cc3)C(=O)N[C@@H](Cc3ccccc3)C(=O)N3CCC[C@H]3C(=O)N[C@@H]3CSCSC[C@@H](C(=O)N[C@@H](Cc4ccccc4)C(=O)N[C@@H](CO)C(=O)O)NC(=O)[C@H](Cc4ccccc4)NC(=O)[C@H](CCC(N)=O)NC3=O)cc21` [Compound 3T, Tam-YFP(c(CH2)QFCFS)], for which the “stability in blood plasma (in words)” value in series [1] is reported as “did not improve its resistance to proteolytic degradation”.

Regarding `C[C@@H]1NC(=O)[C@H](Cc2ccccc2)NC(=O)[C@H](CCC(N)=O)NC(=O)[C@H](NC(=O)[C@@H]2CCCN2C(=O)[C@H](Cc2ccccc2)NC(=O)[C@H](Cc2ccc(O)cc2)NC(=O)c2ccc3c(c2)C2(OC3=O)c3ccc(N(C)C)cc3Oc3cc(N(C)C)ccc32)CSCSCC[C@@H](C(=O)O)NC(=O)[C@H](Cc2ccccc2)NC1=O` [Compound 6T, Tam-YFP(c(CH2)QFAFX)], the “stability in blood plasma (in words)” value in series [1] is listed as “the same stability for 24 h”.

By EC50 is commonly meant the concentration giving half of the maximal effect. On to `C[C@@H]1NC(=O)[C@H](Cc2ccccc2)NC(=O)[C@H](CCC(N)=O)NC(=O)[C@H](NC(=O)[C@@H]2CCCN2C(=O)[C@H](Cc2ccccc2)NC(=O)[C@H](Cc2ccc(O)cc2)NC(=O)CCOCCOCCOCCOCCN)CCSSC[C@@H](C(=O)O)NC(=O)[C@H](Cc2ccccc2)NC1=O` [Compound 12, EG(4)-YFP(xQFAFC)], for which, at hCMKLR1, the “pEC50 ± SEM” value was 7.766 ± 0.23 and the EC50 amounted to 17 nM.

What is called IC50 is the concentration needed to halve the response being measured. For Mtx-GFLGK(Ac)YFP(xQFAFC) [Compound 15], the results for the IC50 (in series [2]; with HMEC-1 cells) were 61 nM and 2 µM, respectively.

Regarding `CN(C)c1ccc2c(c1)Oc1cc(N(C)C)ccc1C21OC(=O)c2ccc(C(=O)N[C@@H](Cc3ccc(O)cc3)C(=O)N[C@@H](Cc3ccccc3)C(=O)N3CCC[C@H]3C(=O)N[C@@H]3CSSC[C@@H](C(=O)N[C@@H](Cc4ccccc4)C(=O)N[C@@H](CO)C(=O)O)NC(=O)[C@H](Cc4ccccc4)NC(=O)[C@H](CCC(N)=O)NC3=O)cc21` [Compound 2T, Tam-YFP(cQFCFS)], in series [1], the “stability in blood plasma (in words)” value is reported as “only slightly increased stability”.

In the case of “GFLGYFP(xQFAFC) (cyclic; GFLG linker) [Compound 11]”, in the series with hCMKLR1, the “pEC50 ± SEM” value is on record as 7.676 ± 0.22 and the EC50 turned out to be 21 nM.

Regarding `CN(C)c1ccc2c(c1)Oc1cc(N(C)C)ccc1C21OC(=O)c2ccc(C(=O)NCCCC[C@@H]3NC(=O)[C@H](Cc4ccccc4)NC(=O)[C@H](CCC(N)=O)NC(=O)[C@H](NC(=O)[C@@H]4CCCN4C(=O)[C@H](Cc4ccccc4)NC(=O)[C@H](N)Cc4ccc(O)cc4)CSSC[C@@H](C(=O)O)NC(=O)[C@H](Cc4ccccc4)NC3=O)cc21` [Compound 8T, yFP(cQFK(Tam)FC)], in series [1], the “stability in blood plasma (in words)” value is on record as “fully stable in blood plasma for 24 h”.

In the case of Tam-YFPGQFAFS, in the series “human blood plasma”, the cleaved bond result was “A7-F8, first_seen, 30 min; also recorded: Q5-F6, minor, 30 min; also recorded: P3-G4, major, 30 min”.

`C[C@@H]1NC(=O)[C@H](Cc2ccccc2)NC(=O)[C@H](CCC(N)=O)NC(=O)[C@H](NC(=O)[C@@H]2CCCN2C(=O)[C@H](Cc2ccccc2)NC(=O)[C@H](Cc2ccc(O)cc2)NC(=O)c2ccc3c(c2)C2(OC3=O)c3ccc(N(C)C)cc3Oc3cc(N(C)C)ccc32)CSSC[C@@H](C(=O)O)NC(=O)[C@H](Cc2ccccc2)NC1=O` [Compound 4T, Tam-YFP(cQFAFC)]: the “stability in blood plasma (in words)” value in series [1] is “remained completely intact for the course of the experiment (24 h)”.

Mtx-GFLGK(Ac)YFPGQFAFS [Compound 14]: the IC50 in series [3] worked out at 345 nM; in the series on HMEC-1 cells it was 13 µM.

The values above are taken from PMC8345219 (Cancers, 2021).
